In US11618753B2 (priority 2018, dated 2023):
pIC50: −log10 of the molar value.

Amino acid sequences for entries named in this document (tags omitted). A change or cut given only in a name is not applied to a line headed by its entry.
UniProt O00329: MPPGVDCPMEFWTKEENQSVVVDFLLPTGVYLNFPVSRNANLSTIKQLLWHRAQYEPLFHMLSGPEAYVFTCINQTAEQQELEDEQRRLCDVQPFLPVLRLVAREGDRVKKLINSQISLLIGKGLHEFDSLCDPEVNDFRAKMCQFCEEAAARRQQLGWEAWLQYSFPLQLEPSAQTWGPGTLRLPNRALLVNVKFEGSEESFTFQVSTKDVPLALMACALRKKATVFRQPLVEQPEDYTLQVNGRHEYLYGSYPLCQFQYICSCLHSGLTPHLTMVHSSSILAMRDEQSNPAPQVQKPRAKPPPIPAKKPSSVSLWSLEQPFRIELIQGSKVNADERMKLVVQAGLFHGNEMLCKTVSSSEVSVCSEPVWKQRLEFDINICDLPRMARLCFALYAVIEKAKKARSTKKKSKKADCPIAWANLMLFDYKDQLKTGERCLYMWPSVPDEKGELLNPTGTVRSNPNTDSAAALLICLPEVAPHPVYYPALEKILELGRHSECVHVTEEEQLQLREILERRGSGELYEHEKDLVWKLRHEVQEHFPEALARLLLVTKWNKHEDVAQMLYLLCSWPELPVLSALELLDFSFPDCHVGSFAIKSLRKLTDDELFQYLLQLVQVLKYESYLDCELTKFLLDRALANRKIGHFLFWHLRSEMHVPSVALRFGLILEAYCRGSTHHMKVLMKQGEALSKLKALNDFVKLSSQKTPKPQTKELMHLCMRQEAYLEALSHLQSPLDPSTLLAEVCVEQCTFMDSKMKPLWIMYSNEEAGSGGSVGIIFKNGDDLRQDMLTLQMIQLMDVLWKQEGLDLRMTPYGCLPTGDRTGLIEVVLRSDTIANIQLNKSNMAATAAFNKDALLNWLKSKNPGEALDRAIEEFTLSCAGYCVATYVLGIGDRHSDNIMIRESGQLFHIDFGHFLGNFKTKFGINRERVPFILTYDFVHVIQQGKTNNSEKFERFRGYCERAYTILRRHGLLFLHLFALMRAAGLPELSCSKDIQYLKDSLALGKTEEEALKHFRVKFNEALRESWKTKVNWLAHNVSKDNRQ

biological target: GST-tagged PIK3Cδ in complex with PIK3R1 (Homo sapiens (Human), UniProt O00329); assay: biochemical

**Q.** `CC(CCNC(=O)c1cccc(-c2c(F)cc3c(N)ncnn23)c1)c1ccccc1` (racemic) [Example 69, 3-{4-amino-6-fluoropyrrolo[2,1-f][1,2,4]triazin-7-yl}-N-(3-phenylbutyl) benzamide] was tested. Which pIC50 did it give?
**A.** < 5.82

**Q.** `COc1ccc(-c2cc(C(F)(F)F)c3c(N)ncnn23)cc1C(=O)NCCC(C)c1ccccc1` (racemic) [Example 160, 5-[4-amino-5-(trifluoromethyl)pyrrolo[2,1-f][1,2,4]triazin-7-yl]-2-methoxy-N-(3-phenylbutyl)benzamide] was tested. Which pIC50 did it give?
**A.** < 5.82

**Q.** `COc1ncc(-c2cc(C(F)(F)F)c3c(N)ncnn23)cc1C(=O)N[C@H]1CCC[C@@H](c2ccccc2)C1` (racemic) [Example 1693, 5-(4-amino-5-(trifluoromethyl)pyrrolo[2,1-f][1,2,4]triazin-7-yl)-2-methoxy-N-((1SR,3RS)-3-phenylcyclohexyl)nicotinamide] was tested. Which pIC50 did it give?
**A.** < 4.82

**Q.** With `Nc1ncnn2c(-c3cc(C(=O)N[C@@H]4CN(C(=O)C5CCC(F)(F)C5)C[C@@H]4F)c(Cl)cc3F)cc(C(F)(F)F)c12` (single isomer, unassigned) [Example 886] as the molecule, how does the pIC50 read?
**A.** 6.07

**Q.** `CC(CCNC(=O)c1cccc(-c2ccc3c(N)ncnn23)c1)c1ccccc1` (stereo not drawn) [Example 1, 3-{4-aminopyrrolo[2,1-f][1,2,4]triazin-7-yl}-N-(3-phenylbutyl)benzamide] was tested. Which pIC50 did it give?
**A.** < 5.82

**Q.** `CC(CCNC(=O)c1cccc(-c2cc(C(F)(F)F)c3c(N)ncnn23)c1)c1ccccc1` (stereo not drawn) [Example 2, 3-[4-amino-5-(trifluoromethyl)pyrrolo[2,1-f][1,2,4]triazin-7-yl]-N-(3-phenylbutyl)benzamide] was tested. Which pIC50 did it give?
**A.** 5.92

**Q.** How did the pIC50 turn out when `Nc1ncnn2c(-c3ccc(F)c(C(=O)Nc4cnn(Cc5ccccc5)c4)c3)cc(C(F)(F)F)c12` [Example 3, 5-[4-amino-5-(trifluoromethyl)pyrrolo[2,1-f][1,2,4]triazin-7-yl]-N-(1-benzyl-1H-pyrazol-4-yl)-2-fluorobenzamide] was run?
**A.** < 5.82

**Q.** `COc1ncc(-c2cc(F)c3c(N)ncnn23)cc1C(=O)Nc1cnn(Cc2ccccc2)c1` [Example 8, 5-{4-amino-5-fluoropyrrolo[2,1-f][1,2,4]triazin-7-yl}-N-(1-benzyl-1H-pyrazol-4-yl)-2-methoxypyridine-3-carboxamide] was tested. Which pIC50 did it give?
**A.** < 5.82

**Q.** `Nc1ncnn2c(-c3cnc(F)c(C(=O)NCC[C@H](O)c4ccc(Cl)cc4)c3)cc(C(F)(F)F)c12` [Example 17, 5-[4-amino-5-(trifluoromethyl)pyrrolo[2,1-f][1,2,4]triazin-7-yl]-N-[(3S)-3-(4-chlorophenyl)-3-hydroxypropyl]-2-fluoropyridine-3-carboxamide] was tested. Which pIC50 did it give?
**A.** < 5.82

**Q.** How did the pIC50 turn out when `Nc1ncnn2c(-c3cccc(C(=O)Nc4cnn(Cc5ccccc5)c4)c3)ccc12` [Example 60, 3-(4-aminopyrrolo[2,1-f][1,2,4]triazin-7-yl)-N-(1-benzyl-1H-pyrazol-4-yl)benzamide] was run?
**A.** < 5.82

**Q.** `COc1ncc(-c2c(F)cc3c(N)ncnn23)cc1C(=O)NCCC(C)c1ccccc1` (stereo not drawn) [Example 61, 5-(4-amino-6-fluoropyrrolo[2,1-f][1,2,4]triazin-7-yl)-2-methoxy-N-(3-phenylbutyl)nicotinamide] was tested. Which pIC50 did it give?
**A.** < 5.82

**Q.** `COc1ncc(-c2c(F)cc3c(N)ncnn23)cc1C(=O)Nc1cnn(Cc2ccccc2)c1` [Example 62, 5-(4-amino-6-fluoropyrrolo[2,1-f][1,2,4]triazin-7-yl)-N-(1-benzyl-1H-pyrazol-4-yl)-2-methoxynicotinamide] was tested. Which pIC50 did it give?
**A.** < 5.82

**Q.** How did the pIC50 turn out when `COc1ccc(-c2cc(C(F)(F)F)c3c(N)ncnn23)cc1C(=O)Nc1cnn(Cc2ccccc2)c1` [Example 65, 5-[4-amino-5-(trifluoromethyl)pyrrolo[2,1-f][1,2,4]triazin-7-yl]-N-(1-benzyl-1H-pyrazol-4-yl)-2-methoxybenzamide] was run?
**A.** 5.85

**Q.** With `Nc1ncnn2c(-c3cccc(C(=O)Nc4cnn(Cc5ccccc5)c4)c3)c(F)cc12` [Example 71, 3-{4-amino-6-fluoropyrrolo[2,1-f][1,2,4]triazin-7-yl}-N-(1-benzyl-1H-pyrazol-4-yl)benzamide] as the molecule, how does the pIC50 read?
**A.** < 5.82

**Q.** With `Nc1ncnn2c(-c3cccc(C(=O)NCC[C@@H](O)c4ccc(Cl)cc4)c3)cc(C(F)(F)F)c12` [Example 73, 3-[4-amino-5-(trifluoromethyl)pyrrolo[2,1-f][1,2,4]triazin-7-yl]-N-[(3R)-3-(4-chlorophenyl)-3-hydroxypropyl]benzamide] as the molecule, how does the pIC50 read?
**A.** 6.78

**Q.** `Nc1ncnn2c(-c3cccc(C(=O)NCCC(O)c4ccc(F)cc4)c3)cc(C(F)(F)F)c12` (stereo not drawn) [Example 74, 3-[4-amino-5-(trifluoromethyl)pyrrolo[2,1-f][1,2,4]triazin-7-yl]-N-[3-(4-fluorophenyl)-3-hydroxypropyl]benzamide] was tested. Which pIC50 did it give?
**A.** 6.92

**Q.** With `Nc1ncnn2c(-c3cccc(C(=O)Nc4cnn(Cc5ccccc5)c4)c3)cc(C(F)(F)F)c12` [Example 76, 3-[4-amino-5-(trifluoromethyl)pyrrolo[2,1-f][1,2,4]triazin-7-yl]-N-(1-benzyl-1H-pyrazol-4-yl)benzamide] as the molecule, how does the pIC50 read?
**A.** 5.94

**Q.** `Nc1ncnn2c(-c3cccc(C(=O)NCC[C@H](O)c4ccc(Cl)cc4)c3)cc(C(F)(F)F)c12` [Example 77, 3-[4-amino-5-(trifluoromethyl)pyrrolo[2,1-f][1,2,4]triazin-7-yl]-N-[(3S)-3-(4-chlorophenyl)-3-hydroxypropyl]benzamide] was tested. Which pIC50 did it give?
**A.** 6.59

**Q.** `Nc1ncnn2c(-c3cccc(C(=O)N[C@H]4CCN(Cc5ccccc5)C4)c3)cc(C(F)(F)F)c12` [Example 78, 3-[4-amino-5-(trifluoromethyl)pyrrolo[2,1-f][1,2,4]triazin-7-yl]-N-[(3S)-1-benzylpyrrolidin-3-yl]benzamide] was tested. Which pIC50 did it give?
**A.** 7.35

**Q.** `Nc1ncnn2c(-c3cccc(C(=O)N4CCC[C@H](Cc5ccc(F)cc5)C4)c3)cc(C(F)(F)F)c12` [Example 81, 7-{3-[(3R)-3-[(4-fluorophenyl)methyl)piperidine-1-carbonyl]phenyl}-5-(trifluoromethyl)pyrrolo[2,1-f][1,2,4]triazin-4-amine] was tested. Which pIC50 did it give?
**A.** 6.25

**Q.** With `Nc1ncnn2c(-c3cccc(C(=O)N4CCC[C@@H](Cc5ccc(F)cc5)C4)c3)cc(C(F)(F)F)c12` [Example 82, 7-{3-[(3S)-3-[(4-fluorophenyl)methyl]piperidine-1-carbonyl]phenyl}-5-(trifluoromethyl)pyrrolo[2,1-f][1,2,4]triazin-4-amine] as the molecule, how does the pIC50 read?
**A.** < 5.82

**Q.** How did the pIC50 turn out when `COc1ncc(-c2cc(C(F)(F)F)c3c(N)ncnn23)cc1C(=O)NCCC(C)c1ccccc1` (stereo not drawn) [Example 109, 5-[4-amino-5-(trifluoromethyl)pyrrolo[2,1-f][1,2,4]triazin-7-yl]-2-methoxy-N-(3-phenylbutyl)pyridine-3-carboxamide] was run?
**A.** < 5.82

**Q.** `COc1ncc(-c2cc(C(F)(F)F)c3c(N)ncnn23)cc1C(=O)Nc1cnn(Cc2ccccc2)c1` [Example 110, 5-[4-amino-5-(trifluoromethyl)pyrrolo[2,1-f][1,2,4]triazin-7-yl]-N-(1-benzyl-1H-pyrazol-4-yl)-2-methoxypyridine-3-carboxamide] was tested. Which pIC50 did it give?
**A.** < 5.82

**Q.** How did the pIC50 turn out when `COc1ncc(-c2cc(C(F)(F)F)c3c(N)ncnn23)cc1C(=O)NCCC(O)c1ccccc1` (stereo not drawn) [Example 117, 5-[4-amino-5-(trifluoromethyl)pyrrolo[2,1-f][1,2,4]triazin-7-yl]-N-(3-hydroxy-3-phenylpropyl)-2-methoxypyridine-3-carboxamide] was run?
**A.** 6.28

**Q.** `COc1ncc(-c2cc(C(F)(F)F)c3c(N)ncnn23)cc1C(=O)N[C@H]1CCN(Cc2ccccc2)C1` [Example 119, 5-[4-amino-5-(trifluoromethyl)pyrrolo[2,1-f][1,2,4]triazin-7-yl]-N-[(3S)-1-benzylpyrrolidin-3-yl]-2-methoxypyridine-3-carboxamide] was tested. Which pIC50 did it give?
**A.** 6.81

**Q.** How did the pIC50 turn out when `COc1ncc(-c2cc(C(F)(F)F)c3c(N)ncnn23)cc1C(=O)NCCC(O)c1ccc(F)cc1` (stereo not drawn) [Example 125, 5-[4-amino-5-(trifluoromethyl)pyrrolo[2,1-f][1,2,4]triazin-7-yl]-N-[3-(4-fluorophenyl)-3-hydroxypropyl]-2-methoxypyridine-3-carboxamide] was run?
**A.** 5.96

**Q.** With `COc1ncc(-c2cc(C(F)(F)F)c3c(N)ncnn23)cc1C(=O)N1CCCC(Cc2cccc(F)c2)C1` (stereo not drawn) [Example 129, 7-(5-{3-[(3-fluorophenyl)methyl]piperidine-1-carbonyl}-6-methoxypyridin-3-yl)-5-(trifluoromethyl)pyrrolo[2,1-f][1,2,4]triazin-4-amine] as the molecule, how does the pIC50 read?
**A.** 6.68

**Q.** How did the pIC50 turn out when `COc1ncc(-c2cc(C(F)(F)F)c3c(N)ncnn23)cc1C(=O)N1CCC[C@@H](Cc2cccc(F)c2)C1` [Example 133, 7-{5-[(3S)-3-[(3-fluorophenyl)methyl]piperidine-1-carbonyl]-6-methoxypyridin-3-yl}-5-(trifluoromethyl)pyrrolo[2,1-f][1,2,4]triazin-4-amine] was run?
**A.** 6.79

**Q.** How did the pIC50 turn out when `Cc1ncc(-c2cc(C(F)(F)F)c3c(N)ncnn23)cc1C(=O)Nc1cnn(Cc2ccccc2)c1` [Example 166, 5-[4-amino-5-(trifluoromethyl)pyrrolo[2,1-f][1,2,4]triazin-7-yl]-N-(1-benzyl-1H-pyrazol-4-yl)-2-methylpyridine-3-carboxamide] was run?
**A.** 6.85

**Q.** `Cc1ncc(-c2cc(C(F)(F)F)c3c(N)ncnn23)cc1C(=O)NCCC(O)c1ccccc1` (stereo not drawn) [Example 167, 5-[4-amino-5-(trifluoromethyl)pyrrolo[2,1-f][1,2,4]triazin-7-yl]-N-(3-hydroxy-3-phenylpropyl)-2-methylpyridine-3-carboxamide] was tested. Which pIC50 did it give?
**A.** 6.86

**Q.** How did the pIC50 turn out when `Cc1ncc(-c2cc(C(F)(F)F)c3c(N)ncnn23)cc1C(=O)NCCC(O)c1ccc(F)cc1` (stereo not drawn) [Example 168, 5-[4-amino-5-(trifluoromethyl)pyrrolo[2,1-f][1,2,4]triazin-7-yl]-N-[3-(4-fluorophenyl)-3-hydroxypropyl]-2-methylpyridine-3-carboxamide] was run?
**A.** 6.61

**Q.** `Nc1ncnn2c(-c3cnc(C(F)(F)F)c(C(=O)NCC[C@@H](O)c4ccc(Cl)cc4)c3)cc(C(F)(F)F)c12` [Example 181, 5-[4-amino-5-(trifluoromethyl)pyrrolo[2,1-f][1,2,4]triazin-7-yl]-N-[(3R)-3-(4-chlorophenyl)-3-hydroxypropyl]-2-(trifluoromethyl)pyridine-3-carboxamide] was tested. Which pIC50 did it give?
**A.** 6.35

**Q.** How did the pIC50 turn out when `Nc1ncnn2c(-c3cnc(C(F)(F)F)c(C(=O)Nc4cnn(Cc5ccccc5)c4)c3)cc(C(F)(F)F)c12` [Example 184, 5-[4-amino-5-(trifluoromethyl)pyrrolo[2,1-f][1,2,4]triazin-7-yl]-N-(1-benzyl-1H-pyrazol-4-yl)-2-(trifluoromethyl)pyridine-3-carboxamide] was run?
**A.** 5.84
